System: rats
Experiment: Onset of cannabinoid and terpene activities in rats (Example 3)
Conditions: for cannabinoid effects observed: oral gavage, more prominent at 8 hours than at 4 hours after dosing

| SMILES | effect on body temperature | cannabinoid effects observed | tolerability (terpenes by themselves, sniffing) |
| --- | --- | --- | --- |
| C=C(C)[C@@H]1CCC(C)=C[C@H]1c1c(O)cc(CCCCC)cc1O | degree of hypothermia observed with groups receiving CBD was unexpected | hyperthermia, abnormal gait and posture | – |
| CCCCCc1cc(O)c2c(c1)OC(C)(C)[C@@H]1CCC(C)=C[C@@H]21 | – | hyperthermia, abnormal gait and posture | – |
| C=CC(C)(O)CCC=C(C)C (stereo not shown) | – | – | rats did not like the smell |
